Reference: publication PMC4256349, “A Conformational Sampling Model for Radical Catalysis in Pyridoxal Phosphate- and Cobalamin-dependent Enzymes” (The Journal of Biological Chemistry, 2014)

System: NCCC[C@@H](N)C(=O)O
Assay: purified protein
Details: anaerobic, 100 mM NH4-EPPS pH 8.5, 25 °C, PLP and AdoCbl holoenzyme, unit row missing in table text, units follow from printed kcat/Km

| Substance | Km (not spin-labelled) | kcat (not spin-labelled) | kcat/Km (not spin-labelled) | Km | kcat | kcat/Km |
| --- | --- | --- | --- | --- | --- | --- |
| ornithine 4,5-aminomutase (OAM) (Acetoanaerobium sticklandii DSM 519; C697S) | 186 ± 11 µM | 2.88 ± 0.03 s⁻¹ | 15500 M⁻¹ s⁻¹ |  |  |  |
| ornithine 4,5-aminomutase (OAM) (Acetoanaerobium sticklandii DSM 519; D624A) |  |  |  | 193 ± 14 µM | 2.89 ± 0.01 s⁻¹ | 15000 M⁻¹ s⁻¹ |
| ornithine 4,5-aminomutase (OAM) (Acetoanaerobium sticklandii DSM 519; E335A) |  |  |  | 176 ± 8 µM | 0.24 ± 0.03 s⁻¹ | 1340 M⁻¹ s⁻¹ |
| ornithine 4,5-aminomutase (OAM) (Acetoanaerobium sticklandii DSM 519; G336W) |  |  |  | 190 ± 6 µM | 0.20 ± 0.05 s⁻¹ | 1050 M⁻¹ s⁻¹ |
| ornithine 4,5-aminomutase (OAM) (Acetoanaerobium sticklandii DSM 519; I421E) |  |  |  | 185 ± 5 µM | 0.76 ± 0.04 s⁻¹ | 4120 M⁻¹ s⁻¹ |
| ornithine 4,5-aminomutase (OAM) (Acetoanaerobium sticklandii DSM 519; P340W) |  |  |  | 193 ± 5 µM | 0.14 ± 0.02 s⁻¹ | 730 M⁻¹ s⁻¹ |
